For experiment [1], the target named is T1, AT1R (Homo sapiens, UniProt P30556).
T1 construct: 3xHA (N); expressed in transfected cells; host or cells: HEK 293T
Kind of experiment: Split luciferase Gαi-LgBiT:β-arrestin-smBiT association after treatment of AT1R. Type of experiment: cell-based. The procedure: HEK293T cells seeded in 6-well plates were co-transfected with 500 ng of smBiT tagged β-arrestin-2, and either 250 ng of LgBiT tagged receptor or 2000 ng of untagged receptor and varying concentrations of LgBiT Gα protein expression vector (most experiments were conducted between 50-200 ng of Gα plasmid) or 2000 ng of mKO tagged β-arrestin-2 and 500 ng of smBiT tagged V2R using a calcium phosphate protocol. Twenty-four hours post-transfection, cells were plated onto clear bottom, white-walled 96-well plates at 50,000-100,000 cells/well in “BRET media”—clear minimum essential medium (GIBCO) supplemented with 2% FBS, 10 mM HEPES, 1×GLUTAMAX™, and 1× Anti-Anti (GIBCO). […] For luminescence split luciferase studies, plates were read with a BioTek SYNERGY™ Neo2 plate reader set at 37° C. with a 485 nm emission filter. […] For split luciferase luminescence experiments, plates were read both before and after ligand treatment to calculate Δnet change in luminescence and subsequently normalized to vehicle treatment. For complex BRET experiments, plates were read on a Berthold Mithras LB940 using pre-warmed media and instrument at 37° C. using a standard Rluc emissions filter (480 nm) with a custom mKO 542 nm long-pass emission filter (Chroma Technology Co., Bellows Falls, Vt.). The BRET ratio was calculated by dividing the mKO signal by the luciferase signal.

Experiment [2] concerns the target T1, AT1R. Kind of experiment: BRET assay of β-arrestin-2-YFP recruitment to AT1R-RlucII. In kind it is cell-based. The source says:
For panel A, n=4 per condition, for panels B and C, n=4-5 per condition, for panels E and F, n=4 per condition. Graphs show mean±s.e.m.
Background: Bioluminescence resonance energy transfer reports proximity on the nanometre scale.

Angiotensin II [AngII]: the “Gαi:β-arrestin complex formation at AT1R” value at AT1R [1] is recorded as “induced Gαi:β-arrestin complex formation”. Also, the “β-arrestin recruitment to AT1R” value at AT1R [2] is “recruits β-arrestin”.

For the origin of these results see US11360096B2, “Complex BRET technique for measuring biological interactions” (DUKE UNIVERSITY, priority 2019, dated 2022).
